Our source for the Kd values is PMC12024540, “Peptide-Based Regulation of TNF-α-Mediated Cytotoxicity” (Biomolecules, 2025).

The target in the experiment is T1, Human TNFR1 (soluble) recombinant protein (Homo sapiens, UniProt P19438).
T1 construct: Human TNFR1 (soluble) recombinant protein; purchased PeproTech
T1 sequence (P19438 41-201 limits assumed): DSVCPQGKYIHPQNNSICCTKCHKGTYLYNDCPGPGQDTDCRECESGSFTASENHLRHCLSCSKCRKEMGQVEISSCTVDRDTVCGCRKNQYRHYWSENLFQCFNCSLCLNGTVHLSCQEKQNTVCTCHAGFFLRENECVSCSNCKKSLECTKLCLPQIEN
The experiment is described as follows: Microscale thermophoresis (MST) binding to labeled TNFR1. As for the experimental part:
MST was performed using a Monolith NT.115 Pico instrument (NanoTemper Technologies, Munich, Germany). In this technique, thermophoresis applied by irradiation with an infrared (IR) laser diode disrupts a ligand-target binding interaction that has equilibrated. The concentration of fluorescent molecules can be altered by the direct movement of molecules within a temperature gradient. The effect on the fluorescence signal is monitored continuously over time. […] Mixtures of labeled molecules and functional peptides or TNFR1 were prepared in PBS. Labeled molecules were maintained at 20 nM for the peptide binding experiments, and the ligand concentrations varied according to the molecule with 16 serial dilutions. The peptide-labeled molecule mixture was loaded into the glass capillaries after 20 min incubation in the dark. Results were analyzed using M.O. Affinity Analysis v.2.3 software.
For orientation: Microscale thermophoresis detects binding through changes in fluorescence in a small temperature gradient.

For the substance TNF-α, the Kd (commonly the free concentration of one partner at which half of the binding sites on the other are occupied at equilibrium, for simple one-to-one binding) worked out at 4.94 nM.
